Earlier results, collected in PMC4467585 (Journal of Thoracic Oncology, 2015).

What was measured:
ALK-rearranged NSCLC [1] = conditions: Japanese patients, ALK inhibitor naive; cited from earlier work
ALK-rearranged NSCLC [2] = conditions: cited from earlier work

CCc1cc2c(cc1N1CCC(N3CCOCC3)CC1)C(C)(C)c1[nH]c3cc(C#N)ccc3c1C2=O [Alectinib]
ORR (ALK-rearranged NSCLC [1]): 93.5%

C[C@@H](Oc1cc(-c2cnn(C3CCNCC3)c2)cnc1N)c1c(Cl)ccc(F)c1Cl [Crizotinib]
Overall response rates (ORRs) (ALK-rearranged NSCLC [2]; advanced ALK-rearranged NSCLC, across all studies): approximately 60%
Median PFS (ALK-rearranged NSCLC [2]; open-label phase III study, previously treated patients): 8 mo
